Measured values reported in patent publication US9040533B2, “Oxime-substituted-quinoxaline-type piperidine compounds as ORL-1 modulators” (priority 2012, dated 2015).

Columns and labels:
[1] = biological target: T1, human opioid receptor-like (ORL-1) (Homo sapiens, UniProt P41146); test: ORL-1 receptor [35S]GTPγS functional binding assay; type: biochemical; conditions: for pEC50: read-out: GTPγS ORL-1 EC50 [mean ± SEM]
human μ-opioid receptors = human μ-opioid receptors (Homo sapiens, UniProt P35372); test: In vitro mu-opioid receptor binding assay ([3H]-diprenorphine displacement); conditions: read-out: Mu opioid receptor Ki [Average ± Std Deviation]
kappa opioid receptor [2] = biological target: T2, kappa opioid receptor (Homo sapiens, UniProt P41145); test: In vitro kappa-opioid receptor binding assay ([3H]-U69,593 displacement); conditions: read-out: Kappa opioid receptor Ki [Average ± Std Deviation]
delta opioid receptor = delta opioid receptor (Homo sapiens, UniProt P41143); test: In vitro delta-opioid receptor binding assay ([3H]-Naltrindole displacement); conditions: read-out: Delta opioid receptor Ki [Average ± Std Deviation]
human μ-receptors = human μ-receptors (Homo sapiens, UniProt P35372); test: Mu-opioid receptor [35S]GTPγS functional assay; conditions: for pEC50: read-out: GTPγS Mu EC50 [mean ± SEM]
human δ-opioid receptors = human δ-opioid receptors (Homo sapiens, UniProt P41143); test: Delta-opioid receptor [35S]GTPγS functional assay; conditions: for pEC50: read-out: GTPγS Delta EC50 [mean ± SEM]
[3] = biological target: T1, human opioid receptor-like (ORL-1); test: In vitro ORL-1 receptor binding assay ([3H]-nociceptin displacement); conditions: read-out: ORL-1 Ki [Average ± Std Deviation]
kappa opioid receptor [4] = biological target: T2, kappa opioid receptor; test: Kappa-opioid receptor [35S]GTPγS functional assay

SMILES	GTPγS ORL-1 Emax [mean ± SEM] [1] [%]	pEC50 [1]	pKi (human μ-opioid receptors)	pKi (kappa opioid receptor [2])	pKi (delta opioid receptor)	GTPγS Mu Emax [mean ± SEM] (human μ-receptors) [%]	pEC50 (human μ-receptors)	GTPγS Delta Emax [mean ± SEM] (human δ-opioid receptors) [%]	pEC50 (human δ-opioid receptors)	pKi [3]	GTPγS Kappa Emax [mean ± SEM] (kappa opioid receptor [4]) [%]
C/C(=N\OCC(=O)O)c1nc2ccccc2n([C@H]2C[C@H]3CCC[C@@H](C2)N3CC[C@@H]2CC[C@H]3C[C@@H]2C3(C)C)c1=O	44.0 ± 2.3	7.15	6.37	6.69	6.59	82 ± 10	6.29	108 ± 5	6.78	7.91	–
NC(=NO)c1nc2ccccc2n([C@H]2C[C@H]3CCC[C@@H](C2)N3C2CC3CCCC(C3)C2)c1=O (some centres unmarked)	28.67 ± 0.88	8.64	6.91	7.62	4.90	–	–	37.33 ± 3.48	5.16	8.46	–
CCO/N=C(\CCC(=O)O)c1nc2ccccc2n([C@H]2C[C@H]3CCC[C@@H](C2)N3C2CC3CC(CC)CC(C3)C2)c1=O (some centres unmarked) [Compound 26]	31.3 ± 1.9	7.70	7.59	6.79	5.92	−0.33 ± 0.67	–	–	–	8.05	–
CCC1CC2CC(C1)CC(N1[C@@H]3CCC[C@H]1C[C@@H](n1c(=O)c(/C(CCC(=O)O)=N/OCCN(C)C)nc4ccccc41)C3)C2 (some centres unmarked) [Compound 34]	49.3 ± 1.3	7.84	7.14	7.80	5.17	−1	–	–	–	8.17	–
CCON=C(C(=O)O)c1nc2ccccc2n([C@H]2C[C@H]3CC[C@@H](C2)N3C2CC3CCCCC(C3)C2)c1=O (some centres unmarked) [Compound 36]	60.33 ± 2.85	7.64	6.15	6.82	4.80	–	–	–	–	8.66	–
CC(C)ON=C(C(=O)O)c1nc2ccccc2n([C@H]2C[C@H]3CC[C@@H](C2)N3C2CC3CCCCC(C3)C2)c1=O (stereo partly drawn) [Compound 37, [4-((1S,3R,5R)-(1R,6S,8S)-8-bicyclo[4.3.1]dec-8-yl-8-aza-bicyclo[3.2.1]oct-3-yl)-3-oxo-3,4-dihydro-quinoxalin-2-yl]-isopropoxyimino-acetic acid]	70.3 ± 6.2	7.70	5.85	6.68	< 4.70	–	–	–	–	8.62	–
NC(=O)CO/N=C(\C(=O)O)c1nc2ccccc2n([C@H]2C[C@H]3CCC[C@@H](C2)N3C2CC3CCCC(C3)C2)c1=O (stereo partly drawn) [Compound 38, (Z)-2-(2-amino-2-oxoethoxyimino)-2-(4-((1R,3R)-9-(bicyclo[3.3.1]nonan-3-yl)-9-azabicyclo[3.3.1]nonan-3-yl)-3-oxo-3,4-dihydroquinoxalin-2-yl)acetic acid]	49.3 ± 8.7	8.35	6.29	7.01	< 4.70	−1	–	–	–	9.11	–
NC(=O)CO/N=C(\CCC(=O)O)c1nc2ccccc2n([C@H]2C[C@H]3CCC[C@@H](C2)N3C2CC3CCCC(C3)C2)c1=O (some centres unmarked) [Compound 39]	25.75 ± 2.29	7.60	5.76	6.18	< 4.70	–	–	–	–	7.57	–
NC(=O)CO/N=C(\CCC(=O)O)c1nc2ccccc2n([C@H]2C[C@H]3CCC[C@@H](C2)N3C2CC3CCCCC(C3)C2)c1=O (stereo partly drawn) [Compound 41, (E)-4-(2-amino-2-oxoethoxyimino)-4-(4-((1R,3R)-9-(bicyclo[4.3.1]decan-8-yl)-9-azabicyclo[3.3.1]nonan-3-yl)-3-oxo-3,4-dihydroquinoxalin-2-yl)butanoic acid]	43.0 ± 5.5	8.08	6.47	6.70	4.71	22.3 ± 0.7	6.80	–	–	8.60	–
CNC(=O)/C(=N\OCC(=O)O)c1nc2ccccc2n([C@H]2C[C@H]3CCC[C@@H](C2)N3C2CC3CCCC(C3)C2)c1=O (some centres unmarked) [Compound 43]	26 ± 1	7.67	5.83	6.54	4.75	–	–	–	–	8.13	–
COCCO/N=C(\C(=O)O)c1nc2ccccc2n([C@H]2C[C@H]3CCC[C@@H](C2)N3C2CC3CCCCC(C3)C2)c1=O (some centres unmarked) [Compound 46]	76.67 ± 3.38	8.38	6.33	6.94	4.76	–	–	–	–	9.44	–
COCCO/N=C(\C(=O)O)c1nc2ccccc2n([C@H]2C[C@H]3CCC[C@@H](C2)N3C2CC3CCCC(C3)C2)c1=O (some centres unmarked) [Compound 49]	69 ± 3.21	7.01	5.77	6.05	< 4.70	–	–	–	–	8.89	–
CON=C(C(=O)O)c1nc2ccccc2n([C@H]2C[C@H]3COC[C@@H](C2)N3C2CC3CCCCC(C3)C2)c1=O (stereo partly drawn) [Compound 50, [4-((1R,5S,7S)-(1S,6R,8R)-9-bicyclo[4.3.1]dec-8-yl-3-oxa-9-aza-bicyclo[3.3.1]non-7-yl)-3-oxo-3,4-dihydro-quinoxalin-2-yl]-methoxyimino-acetic acid]	75.0 ± 9.5	7.77	4.74	< 4.70	< 4.70	–	–	–	–	8.78	–
CC(O/N=C(\C(=O)O)c1nc2ccccc2n([C@H]2C[C@H]3CCC[C@@H](C2)N3C2CC3CCCC(C3)C2)c1=O)C(N)=O (some centres unmarked) [Compound 52]	30.67 ± 3.71	7.61	5.37	6.67	< 4.70	–	–	–	–	8.88	–
CC(C)C(O/N=C(\C(=O)O)c1nc2ccccc2n([C@H]2C[C@H]3CCC[C@@H](C2)N3C2CC3CCCC(C3)C2)c1=O)C(N)=O (some centres unmarked) [Compound 53]	36 ± 7	7.21	5.85	6.65	4.72	–	–	–	–	8.71	–
NC(=O)CO/N=C(\C(=O)O)c1nc2ccccc2n([C@H]2C[C@H]3CC[C@@H](C2)N3C2CC3CCCCC(C3)C2)c1=O (some centres unmarked) [Compound 60]	35 ± 4.16	7.72	6.60	7.13	< 4.70	–	–	–	–	9.39	1
CC(C)(O/N=C(\C(=O)O)c1nc2ccccc2n([C@H]2C[C@H]3CC[C@@H](C2)N3C2CC3CCCCC(C3)C2)c1=O)C(N)=O (some centres unmarked) [Compound 61]	29.75 ± 3.01	8.12	6.06	6.34	4.94	–	–	–	–	9.04	1
CN(C)C(=O)CON=C(C(=O)O)c1nc2ccccc2n([C@H]2C[C@H]3CCC[C@@H](C2)N3C2CC3CCCC(C3)C2)c1=O (some centres unmarked) [Compound 63]	42.67 ± 0.67	9.28	7.06	7.65	4.83	−0.33 ± 0.67	–	–	–	9.29	–
CNC(=O)CON=C(C(=O)O)c1nc2ccccc2n([C@H]2C[C@H]3CCC[C@@H](C2)N3C2CC3CCCC(C3)C2)c1=O (some centres unmarked) [Compound 64]	43.33 ± 0.88	8.92	6.57	7.45	4.86	–	–	–	–	9.30	–

pEC50, pKi: −log10 of the molar value.
